# Ab-91 heavy chain CDR variants: yeast mating affinities

Values reported by Engelhart et al. 2022, doi:10.1038/s41597-022-01779-4 (FLAb copy).

Target peptide (SARS-CoV-2 spike, HR2 region): PDVDLGDISGINAS

Parent scFv Ab-91: VL joined to VH by the linker GGGGSGGGGSGGGGS. Changes lie in the heavy chain CDRs alone.
VL: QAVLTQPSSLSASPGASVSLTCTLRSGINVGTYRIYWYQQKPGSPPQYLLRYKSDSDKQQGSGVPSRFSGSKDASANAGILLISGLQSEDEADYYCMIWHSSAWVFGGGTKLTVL
VH: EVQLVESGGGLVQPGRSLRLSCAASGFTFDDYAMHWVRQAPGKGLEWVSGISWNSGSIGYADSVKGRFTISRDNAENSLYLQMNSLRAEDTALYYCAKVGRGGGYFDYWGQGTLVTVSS

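The starting antibody came from a phage panning campaign against this peptide. AAYL51 was designed without a model: most single CDR substitutions and a random sample of double and triple ones. The scFvs were displayed on barcoded MATa yeast, the peptide on MATalpha yeast. The frequency of each diploid, read from paired DNA barcodes, reflects how well the two displayed proteins bind. A regression on co-assayed BCL2-family reference pairs converts the normalised counts of each replicate to an apparent Kd. The assay was run in three technical replicates.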

Substitutions are numbered in sequence along the VH above, starting at 1 (not Kabat).
The read-out is the apparent dissociation constant on a log10 scale (nM): the lower, the stronger.
A mean of the replicates is given; it leaves out those without a signal.
A pair that was not seen in that replicate is written "n.d."; this usually means weak binding, but a binder can also be missed.
Parent in this assay: reference entry 1.86, copy in this library 0.88.

{"changes": "W53S+G56L+F106K", "replicates, log10 nM": "n.d. 4.62 5.30", "log10 Kd (nM), mean": "4.96", "signal with controls": "4 of 9 (4.85)"}
{"changes": "D62I+Y105L", "replicates, log10 nM": "n.d. 4.55 4.03", "log10 Kd (nM), mean": "4.29", "signal with controls": "1 of 9 (4.25)"}
{"changes": "G59P+D62T", "replicates, log10 nM": "5.24 n.d. n.d.", "log10 Kd (nM), mean": "5.24", "signal with controls": "3 of 9 (4.96)"}
{"changes": "D30W+V99S+Y108W", "replicates, log10 nM": "5.16 5.70 n.d.", "log10 Kd (nM), mean": "5.43", "signal with controls": "1 of 9 (3.67)"}
{"changes": "F27S+V64T+V99G", "replicates, log10 nM": "n.d. n.d. n.d.", "log10 Kd (nM), mean": "n.d.", "signal with controls": "0 of 9"}
{"changes": "Y32S+M34S+G104D", "replicates, log10 nM": "n.d. n.d. n.d.", "log10 Kd (nM), mean": "n.d.", "signal with controls": "1 of 9 (5.07)"}
{"changes": "Y60N+V64H", "replicates, log10 nM": "5.53 5.49 4.67", "log10 Kd (nM), mean": "5.23", "signal with controls": "2 of 9 (4.17)"}
{"changes": "I58M+V64K", "replicates, log10 nM": "n.d. n.d. n.d.", "log10 Kd (nM), mean": "n.d.", "signal with controls": "0 of 9"}
{"changes": "F29D+D31Q+V64W", "replicates, log10 nM": "n.d. n.d. n.d.", "log10 Kd (nM), mean": "n.d.", "signal with controls": "0 of 9"}
{"changes": "S55W+R101M+D107C", "replicates, log10 nM": "4.03 n.d. 4.37", "log10 Kd (nM), mean": "4.20", "signal with controls": "1 of 9 (3.57)"}
{"changes": "G50K+G102Y+Y108K", "replicates, log10 nM": "4.09 n.d. n.d.", "log10 Kd (nM), mean": "4.09", "signal with controls": "3 of 9 (4.27)"}
{"changes": "Y60N+R101H+Y108H", "replicates, log10 nM": "4.23 3.89 4.32", "log10 Kd (nM), mean": "4.15", "signal with controls": "4 of 9 (4.39)"}
{"changes": "Y32G+A33W+G102H", "replicates, log10 nM": "n.d. n.d. n.d.", "log10 Kd (nM), mean": "n.d.", "signal with controls": "0 of 9"}
{"changes": "A33G+D62W+G102W", "replicates, log10 nM": "n.d. n.d. n.d.", "log10 Kd (nM), mean": "n.d.", "signal with controls": "0 of 9"}
{"changes": "D62Q+G103D", "replicates, log10 nM": "1.26 0.92 0.59", "log10 Kd (nM), mean": "0.92", "signal with controls": "1 of 9 (3.14)"}
{"changes": "F29P+S63C+G103D", "replicates, log10 nM": "n.d. 3.86 n.d.", "log10 Kd (nM), mean": "3.86", "signal with controls": "0 of 9"}
{"changes": "D31P+Y60I+G100R", "replicates, log10 nM": "n.d. 4.24 n.d.", "log10 Kd (nM), mean": "4.24", "signal with controls": "2 of 9 (3.70)"}
{"changes": "H35G+F106R+Y108T", "replicates, log10 nM": "n.d. n.d. 2.74", "log10 Kd (nM), mean": "2.74", "signal with controls": "0 of 9"}
{"changes": "G26M+Y60W+V64H", "replicates, log10 nM": "n.d. n.d. n.d.", "log10 Kd (nM), mean": "n.d.", "signal with controls": "0 of 9"}
{"changes": "I58M+K65N+D107H", "replicates, log10 nM": "0.92 0.86 0.59", "log10 Kd (nM), mean": "0.79", "signal with controls": "1 of 9 (4.86)"}
{"changes": "Y32F+W53L+G56R", "replicates, log10 nM": "2.09 2.50 1.44", "log10 Kd (nM), mean": "2.01", "signal with controls": "0 of 9"}

Picked from the list: the 2 lowest averages where every replicate gave a value.

changes,"replicates, log10 nM","log10 Kd (nM), mean",signal with controls
I58M+K65N+D107H,0.92 0.86 0.59,0.79,1 of 9 (4.86)
D62Q+G103D,1.26 0.92 0.59,0.92,1 of 9 (3.14)

As a blank, each scFv also met three strains without target: over library AAYL51, 21% of these pairings were detected, typically at 4.54 and seldom below 3.26. Also given: how often the same scFv was detected with the empty control strains, with their mean in brackets.